# Measured values taken from patent publication US8795611B2 (priority 2009, dated 2014).
# Details: 36% (v/v) TBP in Isane IP 185; aqueous 360 g/L uranium, 2 mol/L nitric acid; after the 3rd contact (uranium depletion); 25° C.
structure (smiles),measurement,value
CCCCOP(=O)(OCCCC)OCCCC,"distribution coefficient of thorium 234, DTh",greater than 1
